{
  "source": "paper PMC4789100",
  "about": "(Environment international, 2009)",
  "biological_target": "T1, sheep placental cytosolic estrogen sulfotransferase (estradiol as substrate) (Ovis aries, UniProt A0ACI6NYW9)",
  "T1 sequence (A0ACI6NYW9 1-296)": "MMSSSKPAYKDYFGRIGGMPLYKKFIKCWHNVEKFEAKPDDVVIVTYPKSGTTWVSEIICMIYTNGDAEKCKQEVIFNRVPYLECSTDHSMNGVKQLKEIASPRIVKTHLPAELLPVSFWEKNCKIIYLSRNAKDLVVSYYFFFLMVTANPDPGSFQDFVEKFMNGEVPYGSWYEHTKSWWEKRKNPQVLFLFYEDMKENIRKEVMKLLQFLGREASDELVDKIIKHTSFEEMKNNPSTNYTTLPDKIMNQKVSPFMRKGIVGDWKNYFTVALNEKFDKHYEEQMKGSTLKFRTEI",
  "format": "biochemical",
  "note": "“Also recorded” adds a separate entry of the source. Read-outs that look alike come from different tables or passages of the source.",
  "data": [
    {"smiles": "Oc1cc(Cl)ccc1Oc1ccc(Cl)cc1Cl", "note": "[Triclosan, 5-chloro-2(2,4-dichlorophenoxy)-phenol]", "values": [
      {"measurement": "Difference in inhibitory potency between Kic and Kiu", "value": 50, "unit": "fold"},
      {"measurement": "Mechanism of inhibition of estradiol sulfonation", "value": "mixed competitive/uncompetitive; also recorded: mixed inhibition"},
      {"measurement": "Vmax for estradiol sulfonation", "setting": "Triclosan 0.1 nM, placental sample SH1", "value": 35.2, "unit": "pmol/min/mg"},
      {"measurement": "Vmax for estradiol sulfonation", "setting": "Triclosan 0.1 nM, placental sample SH2", "value": 22.4, "unit": "pmol/min/mg"},
      {"measurement": "Vmax for estradiol sulfonation", "setting": "Triclosan 0.1 nM, placental sample SH3", "value": 37.4, "unit": "pmol/min/mg"},
      {"measurement": "Vmax for estradiol sulfonation", "setting": "Triclosan 0.5 nM, placental sample SH1", "value": 31.6, "unit": "pmol/min/mg"},
      {"measurement": "Vmax for estradiol sulfonation", "setting": "Triclosan 0.5 nM, placental sample SH2", "value": 22.7, "unit": "pmol/min/mg"},
      {"measurement": "Vmax for estradiol sulfonation", "setting": "Triclosan 0.5 nM, placental sample SH3", "value": 32.4, "unit": "pmol/min/mg"},
      {"measurement": "Vmax for estradiol sulfonation", "setting": "Triclosan 1.0 nM, placental sample SH1", "value": 26.0, "unit": "pmol/min/mg"},
      {"measurement": "Vmax for estradiol sulfonation", "setting": "Triclosan 1.0 nM, placental sample SH2", "value": 20.9, "unit": "pmol/min/mg"},
      {"measurement": "Vmax for estradiol sulfonation", "setting": "Triclosan 1.0 nM, placental sample SH3", "value": 31.6, "unit": "pmol/min/mg"},
      {"measurement": "Vmax for estradiol sulfonation", "setting": "Triclosan 2.0 nM, placental sample SH1", "value": 19.9, "unit": "pmol/min/mg"},
      {"measurement": "Vmax for estradiol sulfonation", "setting": "Triclosan 2.0 nM, placental sample SH3", "value": 27.1, "unit": "pmol/min/mg"},
      {"measurement": "Vmax for estradiol sulfonation", "setting": "Triclosan 2.5 nM, placental sample SH2", "value": 17.6, "unit": "pmol/min/mg"},
      {"measurement": "Vmax for estradiol sulfonation", "setting": "Triclosan 2.5 nM, placental sample SH3", "value": 26.5, "unit": "pmol/min/mg"},
      {"measurement": "Kiu, uncompetitive inhibitory constant", "setting": "estradiol 0.1-6 nM, mean±S.D., n=3 individuals", "value": "5.2 ± 2.9", "unit": "nM"}
    ]}
  ]
}
